Structures can show the parent of a compound that is named as a salt.
Target: T1, human NTCP (Homo sapiens, UniProt Q14973)
T1 sequence (Q14973 1-349): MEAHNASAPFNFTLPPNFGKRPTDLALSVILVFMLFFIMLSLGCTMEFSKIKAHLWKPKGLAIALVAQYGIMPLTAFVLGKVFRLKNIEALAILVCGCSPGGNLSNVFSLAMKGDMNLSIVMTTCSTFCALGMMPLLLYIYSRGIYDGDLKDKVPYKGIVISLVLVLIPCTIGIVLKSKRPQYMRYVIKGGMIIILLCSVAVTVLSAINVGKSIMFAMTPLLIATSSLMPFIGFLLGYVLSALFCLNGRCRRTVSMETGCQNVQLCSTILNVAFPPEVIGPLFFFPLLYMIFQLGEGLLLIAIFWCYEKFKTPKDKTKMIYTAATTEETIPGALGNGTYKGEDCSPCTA
Test: Screening fluorescent competitive Myrcludex B-FITC binding assay (96-well, 10 µM drug)
Details: for B-score binding assay / %NTCP binding: screening Myrcludex B-FITC binding, 10 µM drug; for remaining activity at 10 µM: 0.5 h, read-out: %NTCP binding, screening Myrcludex B-FITC binding, 10 µM drug, Prestwick library; for %NTCP binding: Prestwick library

| SMILES | B-score binding assay | also measured |
| --- | --- | --- |
| CCOC(=O)OC(C)OC1=C(C(=O)Nc2ccccn2)N(C)S(=O)(=O)c2ccccc21 (centres unmarked) [Ampiroxicam] | -0.573 | – |
| CC(CN(C)C)CN1c2ccccc2CCc2ccccc21.O=C(O)/C=C\C(=O)O (centres unmarked) [Trimipramine maleate salt] | -2.482 | – |
| COc1ccc2c(c1)c(CC(=O)O)c(C)n2C(=O)c1ccc(Cl)cc1 [Indomethacin] | -0.766 | – |
| CC(=O)Oc1ccccc1C(=O)Nc1ncc([N+](=O)[O-])s1 [Nitazoxanide] | -0.318 | – |
| Cc1ncc([N+](=O)[O-])n1CC(O)CCl (centres unmarked) [Ornidazole] | -0.229 | – |
| CN1CCC(OC(c2ccccc2)c2ccccc2)CC1 [Diphenylpyraline hydrochloride] | -2.941 | – |
| C[C@]12C/C(=C/O)C(=O)C[C@@H]1CC[C@@H]1[C@@H]2CC[C@@]2(C)[C@H]1CC[C@]2(C)O [Oxymetholone] | 1.895 | remaining activity at 10 µM: 45% |
| CNCC(O)c1ccc(O)cc1 (racemic) [(+,-)-Synephrine] | -0.067 | %NTCP binding: 77.9292% |
| CN(C)CCN1C(=O)c2ccccc2N(C)c2ccccc21.Cl [Dibenzepine hydrochloride] | 0.211 | %NTCP binding: 84.8755% |
| C#CCN(C)CCCOc1ccc(Cl)cc1Cl [Clorgyline hydrochloride] | -0.207 | – |
| Nc1cc(N2CCCCC2)nc(N)[n+]1[O-] [Minoxidil] | -1.367 | – |
| CCCCOc1cc(C(=O)NCCN(CC)CC)c2ccccc2n1 [Dibucaine] | – | B-score binding assay (B-score): 3.478 |
| CS(=O)(=O)c1ccc(C2=C(c3ccccc3)C(=O)OC2)cc1 [Rofecoxib] | -3.072 | – |
| Cc1c(Cl)cccc1Nc1ccccc1C(=O)O [Tolfenamic Acid, Tolfenamic acid] | -4.587 | – |
| C[N+]1(C)CCC(=C(c2ccccc2)c2ccccc2)CC1 [Diphemanil methylsulfate] | – | B-score binding assay (B-score): 2.052 |
| CC(C)n1c(/C=C/C(O)CC(O)CC(=O)O)c(-c2ccc(F)cc2)c2ccccc21 (centres unmarked) [Fluvastatin sodium salt] | -1.788 | – |
| COC(=O)Nc1nc2ccc(SC(C)C)cc2[nH]1 [Methiazole] | -0.889 | – |
| CC(=O)c1ccc2c(c1)N(CCCN1CCC(CCO)CC1)c1ccccc1S2 [Piperacetazine] | 1.105 | – |
| CCOC(=O)N1CCC(=C2c3ccc(Cl)cc3CCc3cccnc32)CC1 [Loratadine] | -2.071 | – |
| C[C@]12CC[C@@H]3c4ccc(OS(=O)(=O)O)cc4CC[C@H]3[C@@H]1CCC2=O [Estropipate] | -2.364 | – |
| C[C@@H]1C[C@@H]([C@H](O)CC2CC(=O)NC(=O)C2)C(=O)[C@@H](C)C1 [Cycloheximide] | -0.859 | – |
| C=CCOC(Cn1ccnc1)c1ccc(Cl)cc1Cl (centres unmarked) [Enilconazole] | 0.029 | remaining activity at 10 µM: 108% |

| SMILES | B-score binding assay | also measured |
| --- | --- | --- |
| C=C1c2c(Cl)ccc(O)c2C(=O)C2=C(O)[C@]3(O)C(=O)C(C(N)=O)=C(O)[C@@H](N(C)C)[C@@H]3[C@@H](O)[C@H]12.O=C(O)c1cc(S(=O)(=O)O)ccc1O [Meclocycline sulfosalicylate] | -0.262 | %NTCP binding: 53.9082% |
| CCCCc1cc2ccccc2c(OCCN(C)C)n1 [Dimethisoquin hydrochloride] | -1.655 | – |
| NC(=O)OCCCc1ccccc1 [Phenprobamate] | -0.482 | remaining activity at 10 µM: 53.8% |
| O=C1c2ccccc2C(=O)C1c1ccccc1 [Phenindione] | -0.842 | – |
| CCCCC1=NC2(CCCC2)C(=O)N1Cc1ccc(-c2ccccc2-c2nnn[nH]2)cc1 [irbesartan, reference compound] | 0.33 | – |
| COc1cc(C(=O)NCc2ccc(OCCN(C)C)cc2)cc(OC)c1OC [Trimethobenzamide hydrochloride] | – | B-score binding assay (B-score): 2.919 |
| N[C@@H](Cc1ccc(O)c(O)c1)C(=O)O [Levodopa] | -2.107 | – |
| C[C@@H]1O[C@@H](O[C@@H]2C=C3CC[C@@H]4[C@H](CC[C@]5(C)[C@@H](c6ccc(=O)oc6)CC[C@]45O)[C@@]3(C)CC2)[C@H](O)[C@H](O)[C@H]1O [Proscillaridin A] | -0.877 | – |
| CC(=O)[C@@]12O[C@](C)(c3ccccc3)O[C@@H]1C[C@H]1[C@@H]3CCC4=CC(=O)CC[C@]4(C)[C@H]3CC[C@@]12C [Algestone acetophenide] | -0.867 | – |
| COc1ccc(-c2cc(=O)c3c(O)cc(O[C@@H]4O[C@H](CO[C@@H]5O[C@@H](C)[C@H](O)[C@@H](O)[C@H]5O)[C@@H](O)[C@H](O)[C@H]4O)cc3o2)cc1O [Diosmin] | -0.897 | – |
| Cc1c(NC(C)C)c(=O)n(-c2ccccc2)n1C.Cl [Isopyrin hydrochloride] | 0.027 | – |
| CO[C@H]1/C=C/O[C@@]2(C)Oc3c(C)c(O)c4c(O)c(c5c(nc6cc(C)ccn65)c4c3C2=O)NC(=O)/C(C)=C\C=C\[C@H](C)[C@H](O)[C@@H](C)[C@@H](O)[C@@H](C)[C@H](OC(C)=O)[C@@H]1C [Rifaximin] | 0.696 | – |
| C#C[C@]1(O)CC[C@H]2[C@@H]3CCc4cc(OC)ccc4[C@H]3CC[C@@]21C [Ethynylestradiol 3-methyl ether] | -0.209 | %NTCP binding: 94.5203% |
| O=C(CCCCCCC(=O)Nc1ccccc1)NO [Vorinostat] | 0.124 | – |
| CCCCC[C@H](O)/C=C/[C@@H]1[C@@H](C/C=C\CCCC(=O)O)[C@@H](O)C[C@H]1O [Dinoprost trometamol] | -0.373 | – |
| CC(=O)OCC(=O)[C@@]12OC3(CCCC3)O[C@@H]1C[C@H]1[C@@H]3CCC4=CC(=O)C=C[C@]4(C)[C@@]3(F)[C@@H](O)C[C@@]12C [Amcinonide] | -0.672 | – |
| CC(C)NNC(=O)c1ccncc1.O=P(O)(O)O [Iproniazide phosphate] | -0.749 | %NTCP binding: 47.8775% |
| CC(=O)Oc1ccccc1C(=O)O [Acetylsalicylic acid] | – | B-score binding assay (B-score): 1.435 |
| NC(N)=NCc1cccc(I)c1.NC(N)=NCc1cccc(I)c1.O=S(=O)(O)O [Iobenguane sulfate] | – | %NTCP binding: 106.865%; B-score binding assay (B-score): 23.906 |
| CCOC(=O)c1ccc(OC(=O)CCCCCN=C(N)N)cc1.CS(=O)(=O)O [Gabexate mesilate] | -2.773 | – |
| CCOC(=O)[N-]c1cn(N2CCOCC2)n[o+]1 [Molsidomine] | -1.062 | – |
| Cn1c(=O)c2[nH]cnc2n(C)c1=O [Aminophylline] | 0.068 | remaining activity at 10 µM: 108% |

| SMILES | B-score binding assay | also measured |
| --- | --- | --- |
| CS(=O)(=O)O.Cc1ccc2c(c1)c1c3n2CCNC3CCC1 (centres unmarked) [Pirlindole mesylate] | -0.677 | %NTCP binding: 93.7427% |
| Nc1nc2c(ncn2CCC(CO)CO)c(=O)[nH]1 [Penciclovir] | 1.956 | – |
| CCCCC(CC)CNC(=N)NC(=N)NCCCCCCNC(=N)NC(=N)NCC(CC)CCCC (centres unmarked) [Alexidine dihydrochloride] | -6.549 | – |
| C[C@]12N[C@H](Cc3ccccc31)c1ccccc12 [Dizocilpine maleate] | -0.089 | remaining activity at 10 µM: 82% |
| Nc1nc2[nH]cc(CCc3ccc(C(=O)N[C@@H](CCC(=O)O)C(=O)O)cc3)c2c(=O)[nH]1 [Pemetrexed disodium] | -0.839 | – |
| CC(Oc1c(Cl)cccc1Cl)C1=NCCN1 (centres unmarked) [Lofexidine] | 0.509 | – |
| C[C@H](CCC(=O)O)[C@H]1CC[C@H]2[C@@H]3CC[C@@H]4C[C@H](O)CC[C@]4(C)[C@H]3CC[C@]12C [Lithocholic acid] | -3.25 | – |
| COc1ccc(C(=O)NCc2ccc(OCCN(C)C)cc2)cc1OC [Itopride] | 0.695 | – |
| CCC1(c2cccc(O)c2)CCCCN(C)C1 (centres unmarked) [Meptazinol hydrochloride] | 1.195 | remaining activity at 10 µM: 106% |
| Nc1ccc(S(=O)(=O)c2ccc(N)cc2)cc1 [Dapsone] | -2.85 | – |
| C[C@@H](O)[C@H]1C(=O)N2C(C(=O)O)=C(SCCN=CN)C[C@H]12 [Imipenem] | – | B-score binding assay (B-score): 1.375 |
| CC(C)N1CCN(c2ccc(OCC3COC(Cn4cncn4)(c4ccc(Cl)cc4Cl)O3)cc2)CC1 (centres unmarked) [Terconazole] | -0.315 | – |
| CC[C@H](c1ccc(O)cc1)[C@@H](CC)c1ccc(O)cc1 [Hexestrol] | -1.833 | – |
| Nc1nc(NC2CC2)c2ncn([C@H]3C=C[C@@H](CO)C3)c2n1 [Abacavir Sulfate] | – | B-score binding assay (B-score): 1.567 |
| CN(C)CCC(c1ccc(Br)cc1)c1ccccn1 (centres unmarked) [Brompheniramine maleate] | 0.237 | – |
| CCOc1cc(CC(=O)N[C@@H](CC(C)C)c2ccccc2N2CCCCC2)ccc1C(=O)O [Repaglinide] | 0.235 | – |
| CN(C)CCOC(=O)C(c1ccccc1)C1(O)CCCC1 (centres unmarked) [Cyclopentolate hydrochloride] | 1.133 | – |
| NC(=NCc1ccccc1)NC(=O)c1nc(Cl)c(N)nc1N [Benzamil hydrochloride] | -0.194 | remaining activity at 10 µM: 84.6% |
| CCC1(C)CC(=O)NC(=O)C1 [Bemegride] | -2.269 | – |
| CC(=O)CCCCn1c(=O)c2c(ncn2C)n(C)c1=O [Pentoxifylline] | -0.069 | – |
| COc1ccccc1OCC(O)COC(N)=O (centres unmarked) [Methocarbamol] | 0.028 | – |
| CCOCCn1c(N2CCCN(C)CC2)nc2ccccc21 [Emedastine] | 0.028 | – |
